Assay results from PubChem BioAssay (NCI).
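Briefly, cells in 96-well plates were exposed to five compound concentrations for 48 h, and endpoints were estimated by linear interpolation. GI50: concentration for 50% inhibition of growth. Definition used: TGI = concentration required for complete inhibition of growth.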

Tests used:
Assay in all cases: NCI tumour cell line growth inhibition, 48 h
[1] = tested on: SK-MEL-28 melanoma
[2] = tested on: OVCAR-8 ovarian
[3] = tested on: MOLT-4 leukemia
[4] = tested on: ACHN renal
[5] = tested on: NCI/ADR-RES ovarian
[6] = tested on: RPMI-8226 leukemia
[7] = tested on: NCI-H226 lung
[8] = tested on: MDA-MB-435
[9] = tested on: KM12 colon
[10] = tested on: HOP-62 NSCLC
[11] = tested on: A549 NSCLC
[12] = tested on: SF-539 CNS
[13] = tested on: M14 melanoma
[14] = tested on: EKVX NSCLC
[15] = tested on: UACC-257 melanoma
[16] = tested on: IGROV1 ovarian
[17] = tested on: U251 CNS
[18] = tested on: SK-MEL-5 melanoma
[19] = tested on: HS 578T breast
[20] = tested on: BT-549 breast
[21] = tested on: PC-3 prostate
[22] = tested on: DU-145 prostate
[23] = tested on: K-562 leukemia
[24] = tested on: UACC-62 melanoma
[25] = tested on: CCRF-CEM leukemia
[26] = tested on: HCT-15 colon
[27] = tested on: CAKI-1 renal
[28] = tested on: SN12C renal
[29] = tested on: TK-10 renal
[30] = tested on: SF-268 CNS
[31] = tested on: OVCAR-4 ovarian
[32] = tested on: HL-60(TB) leukemia
[33] = tested on: SK-OV-3 ovarian
[34] = tested on: RXF 393 renal
[35] = tested on: SW-620 colon
[36] = tested on: SNB-19 CNS
[37] = tested on: MCF7 breast
[38] = tested on: COLO 205 colon
[39] = tested on: OVCAR-3 ovarian
[40] = tested on: OVCAR-5 ovarian
[41] = tested on: SF-295 CNS
[42] = tested on: HT29 colon
[43] = tested on: HCT-116 colon
[44] = tested on: LOX IMVI melanoma
[45] = tested on: MALME-3M melanoma
[46] = tested on: T-47D breast
[47] = tested on: 786-0 renal
[48] = tested on: SK-MEL-2 melanoma
[49] = tested on: SR leukemia
[50] = tested on: NCI-H460 lung
[51] = tested on: UO-31 renal
[52] = tested on: MDA-MB-231 breast
[53] = tested on: HOP-92 NSCLC
[54] = tested on: A498 renal
[55] = tested on: NCI-H23 lung
[56] = tested on: SNB-75 CNS
[57] = tested on: NCI-H322M lung

O=[N+]([O-])c1cccc(Oc2ccc([N+](=O)[O-])cc2[N+](=O)[O-])c1
GI50 [1]: 6.92 µM | TGI [1]: 19.9 µM | GI50 [2]: 1.85 µM | TGI [2]: 13.6 µM | GI50 [3]: 2.35 µM | TGI [3]: > 100 µM | GI50 [4]: 4.97 µM | TGI [4]: 19.2 µM | GI50 [5]: 0.974 µM | TGI [5]: 17 µM | GI50 [6]: 0.643 µM | TGI [6]: 12.3 µM | GI50 [7]: 4.56 µM | TGI [7]: 30.7 µM | GI50 [8]: 1.76 µM | TGI [8]: 9.44 µM | GI50 [9]: 3.36 µM | TGI [9]: 13.9 µM | GI50 [10]: 4.04 µM | TGI [10]: 15.5 µM | GI50 [11]: 3.46 µM | TGI [11]: 12.8 µM | GI50 [12]: 3.98 µM | TGI [12]: 18.6 µM | GI50 [13]: 1.25 µM | TGI [13]: 14 µM | GI50 [14]: 9.84 µM | TGI [14]: 24.1 µM | GI50 [15]: 1.61 µM | TGI [15]: 7.1 µM | GI50 [16]: 1.58 µM | TGI [16]: 6.65 µM | GI50 [17]: 1.61 µM | TGI [17]: 12.8 µM | GI50 [18]: 3.06 µM | TGI [18]: 10.8 µM | GI50 [19]: 7.23 µM | TGI [19]: 74.7 µM | GI50 [20]: 5.2 µM | TGI [20]: 17.4 µM | GI50 [21]: 4.49 µM | TGI [21]: 19.6 µM | GI50 [22]: 2.86 µM | TGI [22]: 8.9 µM | GI50 [23]: 0.33 µM | TGI [23]: > 100 µM | GI50 [24]: 4.82 µM | TGI [24]: 21.9 µM | GI50 [25]: 0.463 µM | TGI [25]: > 100 µM | GI50 [26]: 0.6 µM | TGI [26]: 22.2 µM | GI50 [27]: 1.58 µM | TGI [27]: 7.2 µM | GI50 [28]: 2.8 µM | TGI [28]: 18.6 µM | GI50 [29]: 3.29 µM | TGI [29]: 14.1 µM | GI50 [30]: 4 µM | TGI [30]: 17.6 µM | GI50 [31]: 0.805 µM | TGI [31]: 18.8 µM | GI50 [32]: 0.514 µM | TGI [32]: 12.4 µM | GI50 [33]: 4.87 µM | TGI [33]: 26 µM | GI50 [34]: 3.76 µM | TGI [34]: 13.9 µM | GI50 [35]: 0.382 µM | TGI [35]: 27.3 µM | GI50 [36]: 9.92 µM | TGI [36]: 24 µM | GI50 [37]: 0.739 µM | TGI [37]: 21.9 µM | GI50 [38]: 3.16 µM | TGI [38]: 10 µM | GI50 [39]: 6.37 µM | TGI [39]: 19.3 µM | GI50 [40]: 4.95 µM | TGI [40]: 20.8 µM | GI50 [41]: 3.47 µM | TGI [41]: 13 µM | GI50 [42]: 0.352 µM | TGI [42]: 28.3 µM | GI50 [43]: 0.317 µM | TGI [43]: 14.4 µM | GI50 [44]: 0.358 µM | TGI [44]: 12.7 µM | GI50 [45]: 4.48 µM | TGI [45]: 22 µM | GI50 [46]: 3.04 µM | TGI [46]: 17.1 µM | GI50 [47]: 3.46 µM | TGI [47]: 15.9 µM | GI50 [48]: 3.58 µM | TGI [48]: 14.1 µM | GI50 [49]: 0.609 µM | TGI [49]: 29.7 µM | GI50 [50]: 3.39 µM | TGI [50]: 15.1 µM | GI50 [51]: 3.35 µM | TGI [51]: 14.5 µM | GI50 [52]: 5.2 µM | TGI [52]: 20.7 µM | GI50 [53]: 1.91 µM | TGI [53]: 18.7 µM | GI50 [54]: 10.6 µM | TGI [54]: 24.3 µM | GI50 [55]: 3.54 µM | TGI [55]: 17.7 µM | GI50 [56]: 3.07 µM | TGI [56]: 18.1 µM | GI50 [57]: 3.1 µM | TGI [57]: 8.18 µM
